## scFv variants of Ab-14 (light chain) against a SARS-CoV-2 spike peptide

Antigen: PDVDLGDISGINAS, a 14-residue peptide of the SARS-CoV-2 spike HR2 region.

Parent: Ab-14, a human scFv built as VH, a 15-residue (Gly4Ser)3 linker, VL. Only the CDRs of the light chain vary.
VH: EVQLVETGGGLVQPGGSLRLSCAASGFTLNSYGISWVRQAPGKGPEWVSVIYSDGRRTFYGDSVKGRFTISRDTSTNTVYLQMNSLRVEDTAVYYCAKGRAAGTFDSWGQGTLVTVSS
VL: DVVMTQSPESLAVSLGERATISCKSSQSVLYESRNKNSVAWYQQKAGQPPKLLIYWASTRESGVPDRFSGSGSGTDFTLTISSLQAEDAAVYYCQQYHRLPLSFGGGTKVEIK

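Phage display of a naive human antibody library on the peptide gave the parent. This is the validation round: designs drawn from the data on random variants, tested in the same kind of assay. Group labels follow the data file (En: ensemble of fine-tuned language models; GP: Gaussian process model; HC: hill climbing; Gen: genetic algorithm; Gibbs: Gibbs sampling; a sequence that several methods proposed may carry one label only). In AlphaSeq, yeast of one mating type display the scFv and yeast of the other type display the target. After mating in shaken culture at 30 °C for 16 h, diploids were selected and their barcode pairs sequenced. Read counts were normalised to the haploid input and turned into Kd by a linear fit to BCL2-family pairs of known affinity, for each replicate. The assay was run in six technical replicates.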

The parent's light chain CDRs are KSSQSVLYESRNKNSVA, WASTRES, QQYHRLPLS; each variant's own CDRs replace them letter for letter. Variants here have more than six changes. Each Kd is an estimate from the mating assay, the geometric mean of the replicates in which the pair was seen; lower is stronger. An entry "not detected" has no value in the source: the pair was not observed among the diploids in any replicate. This suggests poor binding but is not conclusive. A sequence measured in both rounds can read differently, since the two assays cover different ranges. Nonspecific signal, from three strains lacking the peptide, appeared in 4% of pairings of all light chain designs, centred on 430 nM (5% of these signals below 38 nM); values are not corrected for it. For each scFv, signals with the empty controls are counted beside the result. The parent sequence was in this pool as ten entries: three were never detected, three once, and four in most replicates, with averages from 2.2 nM to 240 nM. The authors averaged sequences with at least three values out of six and counted those with two or fewer as poor binders.

CDR-L1	CDR-L2	CDR-L3	group	Kd	detected	control signals
KLQQESNNMNDIQNSVA	DESMLET	QHYWRLPLT	En_Gibbs	not detected	0/6	0/18
IVSQLMLWGMHVKNSIA	EAMTRLN	QQYDRLPLF	En_Gen	3.9 nM	6/6	0/18
KSHISELYEDRNQNSVA	SASQRLE	QQYHRLPLS	GP_Gibbs	560 pM	6/6	0/18
SMSNLQILPDVWKNSIA	DGEHVEY	QQYSRLPLT	En_Gibbs	2.1 nM	6/6	1/18
KLTQTMRFEQKKKNNIA	EVTTRTK	QQYYRLPLA	En_Gen	54 nM	6/6	2/18
HMSMLTMMGMRHRNSVA	QMTMREN	QQYDRLPLT	En_Gen	90 nM	5/6	0/18
MVNGIMDHLSKNTNNVA	ETTTRNS	QQYDRLPLS	En_Gen	27 nM	6/6	1/18
HITDLMYNNNEGMQNIA	DKNISVM	QQYFRLPLD	En_Gibbs	41 nM	6/6	0/18
SITIYTDENGLKMQSIA	GAGNRML	QQYHRLPLT	En_Gibbs	2.1 nM	6/6	1/18
TISGMMNSAASKHNSVA	NVTMRPQ	QQYHRLPLS	En_Gen	16 nM	6/6	1/18
KLSQQQLYESRNKNSVA	NASLRLS	QCYHRLPLS	GP_Gibbs	3.4 nM	6/6	0/18
MMSQVTGLGQRTRNNVA	QTSTREP	QQYDRLPLI	En_Gen	2.0 nM	6/6	0/18
KISFQYRFEQLSKNNIA	EVVTRLK	QQYHRLPLS	En_HC	60 nM	6/6	1/18
MISDLTMYGSRNVNSVA	DLSTRGS	QQYFRLPLS	En_HC	1.8 nM	6/6	1/18
MISDTGQHDSRMKNSVA	NNSTRES	QQYHRLPLS	En_HC	300 nM	5/6	2/18
TISMVMNTLTRHGNNVA	DLAERED	QQYFRLPLS	En_Gen	34 nM	6/6	2/18
KLSMTHQMESVNRNSVA	ELVTRMR	QQYNRLPLS	En_Gen	7.4 nM	6/6	1/18
KIGFTLNQLMHKKNNVA	DLVTREQ	QQYHRLPLS	En_Gen	2.8 nM	6/6	1/18
QLLMATMQGKYNRNSVA	HAETRED	QSYHRLPLS	En_HC	12 nM	6/6	1/18
KMHLTHEAQPRNHNNIA	EGNLRPT	QQYFRLPLM	En_Gibbs	1.3 nM	6/6	0/18
NMQLQVRSGNNNKYNIA	DEMLREY	QQYNRLPLS	En_Gibbs	53 nM	3/6	1/18
KLGQMTAIESRNNNSVA	QMDTRES	QQYDRLPLS	En_HC	14 nM	5/6	1/18
MISQLFMYGSRNYNSIA	QAEEREK	QQYDRLPLE	En_HC	1.7 µM	4/6	1/18
HMSHLTLGGMRARNSVA	QMTTREN	QQYDRLPLA	En_Gen	not detected	0/6	0/18
KVYQGVDYEDRNKNSVA	HASQRES	QQYHRLPLS	GP_Gibbs	520 pM	6/6	1/18
KLGYPSYGEVNGKNNIA	EMDQLTF	QQYSHLPLT	En_Gibbs	500 nM	5/6	0/18
MVSQLMLWGHLAKNSIA	EAEHRIN	QQYDRLPLF	En_Gen	11 nM	6/6	0/18
KFMYSVLYEERNQNSVA	NASQRES	QQYHRLPLS	GP_Gibbs	15 nM	6/6	0/18
IISQLKLGEWRNKNSVA	DASQRES	QQYHRLPLS	GP_Gibbs	2.4 nM	6/6	3/18
KLDLENGHEGKKGQNIA	EASTAGD	QSYWRLPLY	En_Gibbs	60 nM	6/6	0/18
KLQQSELYEERNSNSVA	NASLREL	QQYHRLPLS	GP_Gibbs	1.7 nM	6/6	0/18
KVSQSHLYEERNANNVA	NASDRES	QQYHRLPLS	GP_Gibbs	370 pM	6/6	0/18
KISQSVGYESRNKNSIA	NASQRMQ	QQYHRLPLS	GP_Gibbs	830 pM	6/6	1/18
KLIQSVAMMSRNKDSIA	DNSTRES	QQYHRLPLS	En_HC	94 nM	6/6	1/18
QMQLNQIEGNQQQNSIA	GESEADM	QHYARLPLT	En_Gibbs	3.0 µM	1/6	0/18
KLRQVTGYEMYNKNSVA	QTSTRVN	QDYHRLPLS	En_HC	6.6 nM	6/6	2/18
MMSQVTGLGQRHRNNVA	QTSTREP	QQYDRLPLI	En_Gen	4.9 nM	6/6	3/18
MVSQLMLWGLHAKNSIA	EAKMRLN	QQYDRLPLI	En_Gen	22 nM	1/6	0/18
FLTYAQDQTGLQYNAIA	QVNLKEN	QQYYRLPLA	En_Gibbs	not detected	0/6	0/18
IIEQGQWEQEQNQNAMA	DGETRMR	QQYYKLPLV	En_Gibbs	3.0 nM	6/6	0/18
RYQMDDNYGKGMRNNVA	DGAEVRM	QQYARLPLL	En_Gibbs	not detected	0/6	0/18
HMSMLTLQGMRHMNSVA	QMTTREN	QQYDRLPLA	En_Gen	17 nM	6/6	1/18
MISQLYNMGQFAINSVA	QASERCN	QQYDRLPLT	En_Gen	160 nM	6/6	2/18
TLGQSTMVESYNKNSVA	QANTREE	QDYHRLPLS	En_HC	68 nM	2/6	0/18
TLAQGIYEPVRKSNNVA	EASHVGD	QQYERLPLE	En_Gibbs	9.9 nM	6/6	2/18
KLSQYVGGESRNKSSLA	DNETRES	QQYHRLPLS	En_HC	65 nM	5/6	0/18
KLGQMTAIESRNNNSVA	QMTTRES	QQYDRLPLS	En_HC	26 nM	6/6	1/18
KWLQSQEYESRNKNSVA	HASTRED	QQYHALPLS	GP_HC	1.9 nM	6/6	0/18
QLSGPMLMESKNKNSVA	EFSTRGS	QQYHRLPLS	En_HC	12 nM	6/6	1/18
IVSQLMLWGIHAKNSIA	EAQMRLN	QQYDRLPLM	En_Gen	not detected	0/6	0/18
MLTMFNNENQGWSNNIA	DTNNVQE	QQYSRLPFQ	En_Gibbs	11 nM	6/6	1/18
KIQWYPLENRGTIQAVA	EASTAYN	QQYMHLPLS	En_Gibbs	59 nM	5/6	0/18
SLSQSTHIESFNKNNVA	EMTTRES	QSYDRLPLS	En_HC	44 nM	5/6	1/18
MVYQAAMMGTSARNSIA	NAEMRPD	QQYHRLPLM	En_Gen	20 nM	6/6	0/18
QVQYHPGESLRHTSSIA	DVNIKEM	QQYSRLPLS	En_Gibbs	4.7 nM	6/6	3/18
TIGQTLMSGVMNRSNVA	EVSERPN	QQYDRLPLA	En_Gen	370 nM	5/6	1/18
TISQITSLFSQTINNVA	EVTTREE	QQYDRLPLT	En_Gen	24 nM	2/6	0/18

The last 3 entries again:

CDR-L1	CDR-L2	CDR-L3	group	Kd	detected	control signals
QVQYHPGESLRHTSSIA	DVNIKEM	QQYSRLPLS	En_Gibbs	4.7 nM	6/6	3/18
TIGQTLMSGVMNRSNVA	EVSERPN	QQYDRLPLA	En_Gen	370 nM	5/6	1/18
TISQITSLFSQTINNVA	EVTTREE	QQYDRLPLT	En_Gen	24 nM	2/6	0/18

Reference: Li et al. 2023, doi:10.1038/s41467-023-39022-2. File: FLAb, binding data.